{
  "source": "patent US20240122893A1",
  "about": "(priority 2021, published 2024)",
  "key": {"[1]": {"system": "SARS-CoV-2/USA/WI1/2020", "settings": "30 mg/kg daily; P=0.01"}, "[2]": {"system": "SARS-CoV-2", "assay": "CPE inhibition assay, SARS-CoV-2 strains in Vero C1008 cells", "assay_type": "cell-based"}},
  "note": "Where “and” joins values, the source holds several entries; their conditions need not be identical. Equal entries are not always repeated.",
  "data": [
    {"molecule": "C[S+]([O-])CCCCN=C=S", "note": "(centres unmarked) [SFN, sulforaphane]", "values": [
      {"measurement": "SARS-CoV-2 spike protein immunostaining, % lung area, fold lower than infected untreated", "setting": "[1]", "result": "4.4 × and 4.41 ×"},
      {"measurement": "TI50, therapeutic index (virus selectivity)", "setting": "[2]", "result": 7}
    ]}
  ]
}
